# Laboratory results taken from US20060079453A1, “Hla binding peptides and their uses” (priority 2002, published 2006).
# How the values were obtained:
# HLA-DR DRB1*0405 (DR4) = HLA-DR DRB1*0405 (DR4) (Homo sapiens, UniProt P01903+P01911, A100R/A169T/D86S/F76Y/I96L/K127E/L162R/M171V/N62H/P40V/Q125Y/R42H/S133A/S149N/S66Y/V115G/V209L/W38E); experiment: biochemical; format: binding; conditions: read-out: DRB1 *0405
# HLA-A*2301 = HLA-A*2301 (Homo sapiens, UniProt P04439, D101N/D140Y/D185E/E176V/E190D/F33S/G103R/G107R/H175R/I119L/I121M/I306V/K168Q/K335N/L105A/L300P/N151K/N90K/P307H/Q86E/Q94H/R106L/R138H/R89G/T104I/T345S/V100E/W191G/Y123F); experiment: biochemical; format: binding; conditions: read-out: A*2301 binding affinity (IC50)
# HLA-A*3002 = HLA-A*3002 (Homo sapiens, UniProt P04439, D101N/D140H/D185E/E176R/F33S/G80R/H175R/K168Q/Q94H/R138E/R41S/V100E); format: binding
# HLA-A*2902 = HLA-A*2902 (Homo sapiens, UniProt P04439, A270S/D101N/D185E/E176V/E277Q/E87Q/F33T/G231S/H175R/I121M/I218V/I322F/K168Q/L300P/L318F/M331R/P208A/P217A/Q86L/T323A/T345S/V100A/V358M); experiment: MHC molecular binding / Capture assay, IC50: A*2902
# HLA-A*0301 = HLA-A*0301 (Homo sapiens, UniProt P04439); experiment: biochemical; format: binding
# [1] = read-out: A*3002 binding affinity (IC50)
# [2] = read-out: A*2902 binding affinity (IC50)
# [3] = read-out: Binding affinity to A*2902 (expressed as an IC50)
# [4] = read-out: A*0301 binding affinity (expressed as an IC50)
Sequence,IC50 (HLA-A*2301),IC50 (HLA-A*3002; [1]),IC50 (HLA-A*2902; [2]),other results
FPTIPLSRLFDNAM,,,,IC50 (HLA-DR DRB1*0405 (DR4)): 0.923 µM
IYSKKRQEP,0.421 µM,0.727 µM,29.4 µM,
KEYSKISEF,0.138 µM,,73.3 µM,IC50 (HLA-A*2902; [3]): 73.3 µM
KVSDETWNY,> 12 µM,0.0019 µM,0.23 µM,IC50 (HLA-A*3002; read-out: Binding affinity to A*3002 (expressed as an IC50)): 0.0019 µM; IC50 (HLA-A*2902; [3]): 0.23 µM
LLIRGLRCQY,,,,IC50 (HLA-A*0301; [4]): 0.727 µM
MSCGRSSRTK,,,,IC50 (HLA-A*0301; [4]): 0.352 µM
NIVTFGCQGR,,,,IC50 (HLA-A*0301; read-out: A*0301 binding affinity (IC50)): 1.51 µM
NYTPGPGIRF,0.037 µM,> 9.65 µM,8.33 µM,
RFHNIAGITF,0.017 µM,0.0014 µM,0.635 µM,
SFFMNKFYI,0.011 µM,1.02 µM,0.2 µM,
SFLQNPQTSLCCFRK,,,,IC50 (HLA-DR DRB1*0405 (DR4)): 1.23 µM
VFLTFFDLF,0.012 µM,13.6 µM,1.51 µM,
VYGETLEKE,0.014 µM,20 µM,91.9 µM,
YYIDFAFRDF,0.019 µM,8.49 µM,47.4 µM,

# Read-outs that look alike come from different tables or passages of the source.
